Data taken from publication PMC4297708 (Drug and alcohol dependence, 2014).

Chains of the proteins cited; added tags and fusions are not shown.
UniProt P23977, whole entry: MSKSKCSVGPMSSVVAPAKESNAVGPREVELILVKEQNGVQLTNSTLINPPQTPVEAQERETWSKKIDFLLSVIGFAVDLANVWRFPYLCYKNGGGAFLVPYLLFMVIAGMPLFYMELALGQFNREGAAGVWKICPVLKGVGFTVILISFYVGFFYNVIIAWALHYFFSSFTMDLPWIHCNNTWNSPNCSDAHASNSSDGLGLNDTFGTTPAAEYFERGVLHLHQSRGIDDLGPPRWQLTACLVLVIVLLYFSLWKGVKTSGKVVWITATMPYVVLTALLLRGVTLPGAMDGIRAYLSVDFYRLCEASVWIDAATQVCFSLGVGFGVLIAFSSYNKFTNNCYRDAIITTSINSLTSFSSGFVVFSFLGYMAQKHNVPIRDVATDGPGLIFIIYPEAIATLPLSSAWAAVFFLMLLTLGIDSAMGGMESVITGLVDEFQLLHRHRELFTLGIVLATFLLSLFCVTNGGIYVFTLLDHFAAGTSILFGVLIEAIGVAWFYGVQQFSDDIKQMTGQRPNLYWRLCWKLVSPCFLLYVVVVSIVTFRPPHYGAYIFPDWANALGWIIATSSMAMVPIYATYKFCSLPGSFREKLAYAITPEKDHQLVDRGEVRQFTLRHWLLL

Biological target: dopamine transporter (DAT) (Rattus norvegicus, UniProt P23977)
Assay: biochemical

With C[C@H](N)C(=O)c1ccccc1 [Cathinone] the EC50 was 83.1 ± 9 nM.
